Earlier results, collected in patent publication US11065330B2, “Induction of antigen-specific tolerance by peripheral phagocytosis” (PLS-Design GmbH, priority 2014, dated 2021).

Conditions: 45 mg CMS/kg/day in two divided doses, one to two weeks

choline magnesium trisalicylate [CMS]
steady state serum salicylate level, mean value: 213 ± 10 mg/L
